{
  "sequences": {"note": "By UniProt entry, the sequences of proteins in these tests, tags left out.", "UniProt P97612, whole entry": "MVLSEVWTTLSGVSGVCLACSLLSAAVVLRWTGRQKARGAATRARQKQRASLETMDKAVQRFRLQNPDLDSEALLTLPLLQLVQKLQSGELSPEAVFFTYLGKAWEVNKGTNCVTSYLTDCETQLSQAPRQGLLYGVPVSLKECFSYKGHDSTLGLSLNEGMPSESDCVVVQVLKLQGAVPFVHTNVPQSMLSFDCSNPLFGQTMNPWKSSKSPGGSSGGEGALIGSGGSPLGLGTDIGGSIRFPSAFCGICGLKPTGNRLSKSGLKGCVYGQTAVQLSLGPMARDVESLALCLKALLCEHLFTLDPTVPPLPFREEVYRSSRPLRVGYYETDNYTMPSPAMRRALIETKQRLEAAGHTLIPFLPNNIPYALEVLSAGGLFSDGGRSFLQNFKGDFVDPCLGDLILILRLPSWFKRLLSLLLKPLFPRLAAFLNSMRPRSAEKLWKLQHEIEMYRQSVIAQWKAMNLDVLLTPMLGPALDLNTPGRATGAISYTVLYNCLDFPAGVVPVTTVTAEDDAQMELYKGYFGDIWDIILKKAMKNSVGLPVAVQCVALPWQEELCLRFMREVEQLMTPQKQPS"},
  "source": "ChEMBL document CHEMBL1155875",
  "about": "“Optimization of the central heterocycle of alpha-ketoheterocycle inhibitors of fatty acid amide hydrolase” (J Med Chem, 2008)",
  "key": {"[1]": {"molecular_target": "T1, Fatty-acid amide hydrolase 1 (Rattus norvegicus, UniProt P97612)", "assay": "Inhibition of rat FAAH expressed in Escherichia coli at pH 9.0"}, "[2]": {"molecular_target": "T1, Fatty-acid amide hydrolase 1", "assay": "Inhibition of rat FAAH expressed in Escherichia coli"}},
  "data": [
    {"smiles": "COC(=O)c1nnc(C(=O)CCCCCCc2ccccc2)s1", "values": [
      {"measurement": "Ki", "setting": "[1]", "result": 1, "unit": "nM"}
    ]},
    {"smiles": "COC(=O)c1cccc(-c2cnc(C(=O)CCCCCCc3ccccc3)o2)n1", "values": [
      {"measurement": "IC50", "setting": "[2]", "result": 8, "unit": "nM"}
    ]},
    {"smiles": "O=C(CCCCCCc1ccccc1)c1ncc(-c2ccccc2)o1", "values": [
      {"measurement": "IC50", "setting": "[2]", "result": 80, "unit": "nM"}
    ]},
    {"smiles": "O=C(O)c1cccc(-c2nnc(C(=O)CCCCCCc3ccccc3)s2)n1", "values": [
      {"measurement": "Ki", "setting": "[1]", "result": 2.5, "unit": "nM"}
    ]}
  ]
}
